Experimental data from patent US20150104519A1, “Pharmaceutical Compositions” (Alpharma Pharmaceuticals LLC, priority 2007, published 2015).

Conditions: in comparison to a 15 mg dose of hydrocodone

SMILES: CN1CC[C@]23c4c5ccc(O)c4O[C@H]2C(=O)CC[C@H]3[C@H]1C5 [Hydromorphone]
- Equianalgesic dose, Calculated Dose: 3.375 mg
